Reference: patent US20220298256A1

Molecular target: His-tagged HER2 (UniProt P04626)
Experiment: SPR (Biacore T200), His-HER2 captured by anti-His on a CM5 chip, high-density surface (200RU), multicycle kinetics

koff: 6e-07 s⁻¹
Substance: wild-type Trastuzumab (HEK293-expressed) (antibody)
